Literature values, collected in patent US11766068B1, “Method of treating smokeless tobacco” (Altria Client Services LLC, priority 2009, dated 2023).

Conditions: cited from earlier work

Question: For “Tocopheryl polyethylene glycol succinate”, which “solubility (water)” value is on record?
Answer: 200 mg/mL
